Patent publication US6375993B1, “Pomegranate extracts and methods of using thereof” (priority 1999, dated 2002)

Test: Free radical scavenging capacity (DPPH)
Details: 50 μmol/L of vitamin E; 100 μmol/L DPPH
Protocol: DPPH (1,1-diphenyl-2-picryl-hydrazyl) is a radical-generating substance which is widely used to monitor free radical scavenging abilities of various antioxidants (51). To analyze free radical scavenging capacity, increasing concentrations of pomegranate juice (0-14 μmol/L of polyphenols) were mixed with 3 mL of 0.1 mmol DPPH/L in ethanol.

vitamin E
free radical scavenging (DPPH absorbance at 517 nm): potent free radical scavenger
